The values below come from patent US20090099157A1, “TETRAHYDRO-PYRAZOLO-PYRIDINE THIOETHER MODULATORS OF CATHEPSIN S” (priority 2007, published 2009).

Chains of the proteins cited; added tags and fusions are not shown. Residues count along the entry.
UniProt P25774, 115-331: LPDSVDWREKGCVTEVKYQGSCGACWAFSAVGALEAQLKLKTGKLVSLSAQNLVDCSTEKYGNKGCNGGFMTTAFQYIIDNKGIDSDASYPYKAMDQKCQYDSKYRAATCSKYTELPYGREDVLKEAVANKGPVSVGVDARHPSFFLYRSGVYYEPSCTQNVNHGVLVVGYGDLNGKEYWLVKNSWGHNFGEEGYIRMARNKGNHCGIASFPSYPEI

The target in this test is Recombinant human cathepsin S (CatS) (Homo sapiens, UniProt P25774). The experiment in a line: biochemical.

With `CS(=O)(=O)N1CCc2c(c(-c3ccc(C(F)(F)F)c(SCC(=O)N4CCOCC4)c3)nn2CC(O)CN2CCN(c3ccccc3C#N)CC2)C1` (stereo not shown) [Example 824, 2-(4-{2-Hydroxy-3-[5-(methylsulfonyl)-3-{3-[(2-morpholin-4-yl-2-oxoethyl)sulfanyl]-4-(trifluoromethyl)phenyl}-4,5,6,7-tetrahydro-1H-pyrazolo[4,3-c]pyridin-1-yl]propyl}piperazin-1-yl)benzonitrile], the IC50 amounted to 10 nM.
For `CS(=O)(=O)N1CCc2c(c(-c3ccc(C(F)(F)F)c(SCCN4CCCC(F)C4)c3)nn2C[C@@H](O)CN2CCCCC2)C1` (stereo partly drawn) [Example 206, (2S)-1-{3-[3-{[2-(3-Fluoropiperidin-1-yl)ethyl]sulfanyl}-4-(trifluoromethyl)phenyl]-5-(methylsulfonyl)-4,5,6,7-tetrahydro-1H-pyrazolo[4,3-c]pyridin-1-yl}-3-piperidin-1-ylpropan-2-ol] the value was 280 nM; for `CS(=O)(=O)N1CCc2c(c(-c3ccc(C(F)(F)F)c(SCCN4CCOCC4)c3)nn2CC(O)CN2CCCCC2)C1` (stereo not shown) [Example 174, 1-[5-(Methylsulfonyl)-3-{3-[(2-morpholin-4-ylethyl)sulfanyl]-4-(trifluoromethyl)phenyl}-4,5,6,7-tetrahydro-1H-pyrazolo[4,3-c]pyridin-1-yl]-3-piperidin-1-ylpropan-2-ol], 400 nM; for `CS(=O)(=O)N1CCc2c(c(-c3ccc(C(F)(F)F)c(SCCNCCC4=CCCCC4)c3)nn2CCCN2CCC(N3CCCC3=O)CC2)C1` [Example 46, 1-{1-[3-(3-{3-[2-(2-Cyclohex-1-enyl-ethylamino)-ethylsulfanyl]-4-trifluoromethyl-phenyl}-5-methanesulfonyl-4,5,6,7-tetrahydro-pyrazolo[4,3-c]pyridin-1-yl)-propyl]-piperidin-4-yl}-pyrrolidin-2-one], 730 nM.
To `CS(=O)(=O)N1CCc2c(c(-c3ccc(C(F)(F)F)c(SCCN4CCN(c5ccccc5)CC4)c3)nn2CCCN2CCC(N3CCCC3=O)CC2)C1` [Example 26, 1-{1-[3-(5-Methanesulfonyl-3-{3-[2-(4-phenyl-piperazin-1-yl)-ethylsulfanyl]-4-trifluoromethyl-phenyl}-4,5,6,7-tetrahydro-pyrazolo[4,3-c]pyridin-1-yl)-propyl]-piperidin-4-yl}-pyrrolidin-2-one] belongs 480 nM.
For `CCOC(=O)NC1CCN(CC(O)Cn2nc(-c3ccc(C(F)(F)F)c(SCCN4CCCCC4)c3)c3c2CCN(S(C)(=O)=O)C3)CC1` (stereo not shown) [Example 693, Ethyl (1-{2-hydroxy-3-[5-(methylsulfonyl)-3-{3-[(2-piperidin-1-ylethyl)sulfanyl]-4-(trifluoromethyl)phenyl}-4,5,6,7-tetrahydro-1H-pyrazolo[4,3-c]pyridin-1-yl]propyl}piperidin-4-yl)carbamate] the value was 65 nM.
Take `C[C@H]1COCCN1CCSc1cc(-c2nn(C[C@@H](O)CN3CCCCC3)c3c2CN(S(C)(=O)=O)CC3)ccc1C(F)(F)F` [Example 392, (2S)-1-{3-[3-({2-[(3S)-3-Methylmorpholin-4-yl]ethyl}sulfanyl)-4-(trifluoromethyl)phenyl]-5-(methylsulfonyl)-4,5,6,7-tetrahydro-1H-pyrazolo[4,3-c]pyridin-1-yl}-3-piperidin-1-ylpropan-2-ol]: the IC50 was 570 nM.
To `CS(=O)(=O)N1CCc2c(c(-c3ccc(C(F)(F)F)c(SCCNC(=O)c4ccc(O)cc4)c3)nn2CC(O)CN2CCC(N3CCCC3=O)CC2)C1` (stereo not shown) [Example 119, 4-Hydroxy-N-{2-[5-(1-{2-hydroxy-3-[4-(2-oxo-pyrrolidin-1-yl)-piperidin-1-yl]-propyl}-5-methanesulfonyl-4,5,6,7-tetrahydro-1H-pyrazolo[4,3-c]pyridin-3-yl)-2-trifluoromethyl-phenylsulfanyl]-ethyl}-benzamide] belongs 390 nM.
For the molecule `CC(C)(C)OC(=O)N1CCC(C(=O)NCCSc2cc(-c3nn(CC(O)CN4CCC(N5CCCC5=O)CC4)c4c3CN(S(C)(=O)=O)CC4)ccc2C(F)(F)F)C1` (stereo not shown) [Example 123, 3-{2-[5-(1-{2-Hydroxy-3-[4-(2-oxo-pyrrolidin-1-yl)-piperidin-1-yl]-propyl}-5-methanesulfonyl-4,5,6,7-tetrahydro-1H-pyrazolo[4,3-c]pyridin-3-yl)-2-trifluoromethyl-phenylsulfanyl]-ethylcarbamoyl}-pyrrolidine-1-carboxylic acid tert-butyl ester], the IC50 turned out to be 230 nM.
As to `CS(=O)(=O)N1CCc2c(c(-c3ccc(C(F)(F)F)c(SCC(=O)NCCOc4ccccc4)c3)nn2CC(O)CN2CCC(N3CCCC3=O)CC2)C1` (stereo not shown) [Example 67, 2-[5-(1-{2-Hydroxy-3-[4-(2-oxo-pyrrolidin-1-yl)-piperidin-1-yl]-propyl}-5-methanesulfonyl-4,5,6,7-tetrahydro-1H-pyrazolo[4,3-c]pyridin-3-yl)-2-trifluoromethyl-phenylsulfanyl]-N-(2-phenoxy-ethyl)-acetamide], the IC50 came to 5550 nM.
For `CS(=O)(=O)N1CCc2c(c(-c3ccc(C(F)(F)F)c(SCCN4CCC(O)(c5ccccn5)CC4)c3)nn2C[C@@H](O)CN2CCOCC2)C1` [Example 728, 1-(2-{[5-{1-[(2S)-2-Hydroxy-3-morpholin-4-ylpropyl]-5-(methylsulfonyl)-4,5,6,7-tetrahydro-1H-pyrazolo[4,3-c]pyridin-3-yl}-2-(trifluoromethyl)phenyl]sulfanyl}ethyl)-4-pyridin-2-ylpiperidin-4-ol] the value was 1000 nM; for `CC(C)(C)OC(=O)N1CCC(NCCSc2cc(-c3nn(CCCN4CCCCC4)c4c3CN(S(C)(=O)=O)CC4)ccc2C(F)(F)F)CC1` [Example 756, 1,1-Dimethylethyl 4-{[2-({5-[5-(methylsulfonyl)-1-(3-piperidin-1-ylpropyl)-4,5,6,7-tetrahydro-1H-pyrazolo[4,3-c]pyridin-3-yl]-2-(trifluoromethyl)phenyl}sulfanyl)ethyl]amino}piperidine-1-carboxylate], 2180 nM; for `CS(=O)(=O)N1CCc2c(c(-c3ccc(C(F)(F)F)c(SCCN4CCOCC4)c3)nn2CC(O)CN2CCN(c3ncccn3)CC2)C1` (stereo not shown) [Example 673], 140 nM.
As for `O=C(CO)NC1CCN(CC(O)Cn2nc(-c3ccc(C(F)(F)F)c(SCCN4CCC(F)(F)C4)c3)c3c2CCNC3)CC1` (stereo not shown) [Example 398, N-[1-(3-{3-[3-{[2-(3,3-Difluoropyrrolidin-1-yl)ethyl]sulfanyl}-4-(trifluoromethyl)phenyl]-4,5,6,7-tetrahydro-1H-pyrazolo[4,3-c]pyridin-1-yl}-2-hydroxypropyl)piperidin-4-yl]-2-hydroxyacetamide], the IC50 worked out at 1550 nM.
Regarding `CC(=O)NC1CCN(C[C@H](O)Cn2nc(-c3ccc(C(F)(F)F)c(SCCN4CC[C@H](F)C4)c3)c3c2CCN(S(C)(=O)=O)C3)CC1` [Example 606, N-{1-[(2S)-3-{3-[3-({2-[(3S)-3-Fluoropyrrolidin-1-yl]ethyl}sulfanyl)-4-(trifluoromethyl)phenyl]-5-(methylsulfonyl)-4,5,6,7-tetrahydro-1H-pyrazolo[4,3-c]pyridin-1-yl}-2-hydroxypropyl]piperidin-4-yl}acetamide], the IC50 turned out to be 350 nM.
For `O=C(C1CCN(CC(O)Cn2nc(-c3ccc(C(F)(F)F)c(SCCN4CCCCC4)c3)c3c2CCNC3)CC1)N1CCOCC1` (stereo not shown) [Example 496, 1-[4-(Morpholin-4-ylcarbonyl)piperidin-1-yl]-3-(3-{3-[(2-piperidin-1-ylethyl)sulfanyl]-4-(trifluoromethyl)phenyl}-4,5,6,7-tetrahydro-1H-pyrazolo[4,3-c]pyridin-1-yl)propan-2-ol] the value was 3560 nM; for `N#Cc1ccccc1N1CCN(CC(O)Cn2nc(-c3ccc(C(F)(F)F)c(SCCN4CCC(F)(F)C4)c3)c3c2CCNC3)CC1` (stereo not shown) [Example 560, 2-[4-(3-{3-[3-{[2-(3,3-Difluoropyrrolidin-1-yl)ethyl]sulfanyl}-4-(trifluoromethyl)phenyl]-4,5,6,7-tetrahydro-1H-pyrazolo[4,3-c]pyridin-1-yl}-2-hydroxypropyl)piperazin-1-yl]benzonitrile], 290 nM.
Take `CS(=O)(=O)N1CCc2c(c(-c3ccc(C(F)(F)F)c(SCCN4CCC(F)(F)CC4)c3)nn2C[C@@H](O)CN2CCC(NC(=O)CO)CC2)C1` [Example 780, N-{1-[(2S)-3-{3-[3-{[2-(4,4-Difluoropiperidin-1-yl)ethyl]sulfanyl}-4-(trifluoromethyl)phenyl]-5-(methylsulfonyl)-4,5,6,7-tetrahydro-1H-pyrazolo[4,3-c]pyridin-1-yl}-2-hydroxypropyl]piperidin-4-yl}-2-hydroxyacetamide]: the IC50 was determined as 45 nM.
On to `CS(=O)(=O)N1CCc2c(c(-c3ccc(Cl)c(SCc4ccc(Cl)cc4)c3)nn2CCCN2CCOCC2)C1` [Example 135, 3-[4-Chloro-3-(4-chloro-benzylsulfanyl)-phenyl]-5-methanesulfonyl-1-(3-morpholin-4-yl-propyl)-4,5,6,7-tetrahydro-1H-pyrazolo[4,3-c]pyridine], for which the IC50 was determined as 350 nM.
To `CN1CCN(CC(O)Cn2nc(-c3ccc(C(F)(F)F)c(SCCN4CCCC4)c3)c3c2CCN(S(C)(=O)=O)C3)CC1` (stereo not shown) [Example 348, 1-(4-Methylpiperazin-1-yl)-3-[5-(methylsulfonyl)-3-{3-[(2-pyrrolidin-1-ylethyl)sulfanyl]-4-(trifluoromethyl)phenyl}-4,5,6,7-tetrahydro-1H-pyrazolo[4,3-c]pyridin-1-yl]propan-2-ol] belongs 3820 nM; to `O=C(CO)N1CCc2c(c(-c3ccc(C(F)(F)F)c(SCCN4CCC(F)(F)C4)c3)nn2CC(O)CN2CCOCC2)C1` (stereo not shown) [Example 355, 1-{3-[3-{[2-(3,3-Difluoropyrrolidin-1-yl)ethyl]sulfanyl}-4-(trifluoromethyl)phenyl]-5-(hydroxyacetyl)-4,5,6,7-tetrahydro-1H-pyrazolo[4,3-c]pyridin-1-yl}-3-morpholin-4-ylpropan-2-ol], 210 nM.
For `O[C@@H](CN1CCC(c2ccncc2)CC1)Cn1nc(-c2ccc(C(F)(F)F)c(SCCN3CCC(F)CC3)c2)c2c1CCNC2` [Example 400, (2S)-1-{3-[3-{[2-(4-Fluoropiperidin-1-yl)ethyl]sulfanyl}-4-(trifluoromethyl)phenyl]-4,5,6,7-tetrahydro-1H-pyrazolo[4,3-c]pyridin-1-yl}-3-(4-pyridin-4-ylpiperidin-1-yl)propan-2-ol] the value was 680 nM.

Broadly, the IC50 is the concentration needed to halve the response being measured.
